{"sequences": {"note": "Chains of the proteins cited; added tags and fusions are not shown. Residues count along the entry.", "UniProt P05556, 21-798 limits assumed": "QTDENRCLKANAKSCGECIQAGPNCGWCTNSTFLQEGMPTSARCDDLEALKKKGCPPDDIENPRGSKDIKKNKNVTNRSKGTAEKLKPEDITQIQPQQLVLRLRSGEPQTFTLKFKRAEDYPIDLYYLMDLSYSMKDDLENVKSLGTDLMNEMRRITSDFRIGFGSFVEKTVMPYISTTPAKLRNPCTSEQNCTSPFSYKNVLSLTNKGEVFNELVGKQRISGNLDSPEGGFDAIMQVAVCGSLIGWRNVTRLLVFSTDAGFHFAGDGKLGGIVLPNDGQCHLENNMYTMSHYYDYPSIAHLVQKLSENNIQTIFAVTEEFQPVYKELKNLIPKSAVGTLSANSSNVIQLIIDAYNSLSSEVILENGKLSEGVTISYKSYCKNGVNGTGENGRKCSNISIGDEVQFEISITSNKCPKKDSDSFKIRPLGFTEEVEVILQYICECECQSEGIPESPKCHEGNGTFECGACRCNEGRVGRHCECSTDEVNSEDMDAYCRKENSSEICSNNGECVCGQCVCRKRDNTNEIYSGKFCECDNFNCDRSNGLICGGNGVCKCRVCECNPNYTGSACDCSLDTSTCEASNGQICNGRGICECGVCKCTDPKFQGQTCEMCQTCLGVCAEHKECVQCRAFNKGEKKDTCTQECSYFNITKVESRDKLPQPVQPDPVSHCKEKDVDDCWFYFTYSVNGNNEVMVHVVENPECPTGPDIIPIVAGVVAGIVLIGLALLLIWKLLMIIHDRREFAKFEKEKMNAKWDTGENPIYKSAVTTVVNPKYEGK", "UniProt P26006, 33-872 limits assumed": "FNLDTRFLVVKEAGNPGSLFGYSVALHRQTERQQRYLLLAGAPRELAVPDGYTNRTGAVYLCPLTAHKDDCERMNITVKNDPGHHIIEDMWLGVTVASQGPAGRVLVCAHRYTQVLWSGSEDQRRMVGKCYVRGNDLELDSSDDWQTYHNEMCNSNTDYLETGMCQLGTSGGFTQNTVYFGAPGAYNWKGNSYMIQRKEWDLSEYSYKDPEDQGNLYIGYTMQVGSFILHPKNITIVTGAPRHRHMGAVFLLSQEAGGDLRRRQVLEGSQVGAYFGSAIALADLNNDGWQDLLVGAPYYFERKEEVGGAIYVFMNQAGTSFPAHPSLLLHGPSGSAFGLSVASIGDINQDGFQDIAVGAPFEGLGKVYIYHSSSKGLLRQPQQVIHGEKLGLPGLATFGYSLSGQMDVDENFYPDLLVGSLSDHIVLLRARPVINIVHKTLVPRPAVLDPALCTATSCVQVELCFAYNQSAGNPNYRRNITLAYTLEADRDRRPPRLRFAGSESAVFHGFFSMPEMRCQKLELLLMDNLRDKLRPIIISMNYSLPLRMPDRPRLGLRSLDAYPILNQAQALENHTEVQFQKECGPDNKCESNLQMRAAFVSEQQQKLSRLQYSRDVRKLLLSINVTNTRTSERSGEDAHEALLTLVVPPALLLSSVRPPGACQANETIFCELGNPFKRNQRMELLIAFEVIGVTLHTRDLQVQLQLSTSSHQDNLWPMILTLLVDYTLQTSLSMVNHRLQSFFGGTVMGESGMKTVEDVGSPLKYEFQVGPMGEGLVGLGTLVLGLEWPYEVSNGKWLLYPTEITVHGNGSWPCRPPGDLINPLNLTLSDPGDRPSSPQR", "UniProt P26006, 873-1051 limits assumed": "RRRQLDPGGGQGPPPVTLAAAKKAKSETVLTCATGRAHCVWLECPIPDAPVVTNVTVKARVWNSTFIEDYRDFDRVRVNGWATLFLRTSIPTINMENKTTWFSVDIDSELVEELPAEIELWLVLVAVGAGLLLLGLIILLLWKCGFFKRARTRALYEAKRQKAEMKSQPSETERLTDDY"}, "source": "patent US11135309B2", "about": "“Poly(vinyl alcohol) nanocarriers” (THE REGENTS OF THE UNIVERSITY OF CALIFORNIA, priority 2015, dated 2021)", "origin": "cited, not measured here", "biological_target": "α3 integrin (Homo sapiens, UniProt P05556+P26006)", "settings": "read-out: Kd (binding specificity to α3 integrin); cited from earlier work"}
{"smiles": "NC(=O)C[C@@H]1NC(=O)[C@@H]2C[C@@H](O)CN2C(=O)CNC(=O)[C@H](Cc2ccc(O)c([N+](=O)[O-])c2)NC(=O)CNC(=O)[C@@H](CC(=O)O)NC(=O)[C@H](N)CSSC[C@H](C(N)=O)NC1=O", "values": [{"measurement": "Kd", "value": 57, "unit": "nM"}]}
